Apparent affinities of Ab-14 variants for a coronavirus HR2 peptide

Reference: Engelhart et al. 2022, doi:10.1038/s41597-022-01779-4. File: FLAb, binding data.

All variants were tested on one target, the spike HR2 peptide PDVDLGDISGINAS (SARS-CoV-2).

The variants keep the light chain, the linker and the frameworks of Ab-14 (scFv order VH, three GGGGS repeats, VL).
VH: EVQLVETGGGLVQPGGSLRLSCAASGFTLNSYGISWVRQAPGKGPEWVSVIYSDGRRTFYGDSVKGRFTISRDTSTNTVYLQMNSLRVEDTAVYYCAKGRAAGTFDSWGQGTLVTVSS
VL: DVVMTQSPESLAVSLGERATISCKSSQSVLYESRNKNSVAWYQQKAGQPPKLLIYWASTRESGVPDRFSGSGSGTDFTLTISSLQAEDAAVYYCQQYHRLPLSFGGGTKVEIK

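Phage display of a naive human antibody library on the peptide gave the parent. AAYL49 was designed without a model: most single CDR substitutions and a random sample of double and triple ones. AlphaSeq pools MATa yeast showing the antibodies with MATalpha yeast showing the peptide. After mating in shaken culture at 30 °C for 16 h, diploids were selected and their barcode pairs sequenced. The ratio of observed to expected reads was calibrated, replicate by replicate, on BCL2-family standards whose Kd was known from biolayer interferometry. There are three technical replicates.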

Each variant's VH is given in full.
Every variant below is changed at G26 of the VH (sequential numbering).
Affinities are written as log10 Kd with Kd in nM; a lower number is a better binder.
A mean of the replicates is given; it leaves out those without a signal.
An entry "nd" has no value in the source: the pair was not observed among the diploids in that replicate. This suggests poor binding but is not conclusive.
Order: sorted from the lowest average up, undetected variants last.
Nonspecific signal, from three strains lacking the peptide, appeared in 15% of pairings of library AAYL49, centred on 4.06 (5% of these signals below 2.83); values are not corrected for it.
In this assay the parent's reference entry averaged 0.65; its copy inside this library read 4.11 (one replicate of three).

For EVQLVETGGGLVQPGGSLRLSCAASVFTLNSYGISWVRQAPGKGPEWVSVIYSDGRRTFYGDSVKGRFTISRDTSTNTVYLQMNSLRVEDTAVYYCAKGRAAGTFDSWGQGTLVTVSS, the assay gave 3.04, 1.79, 2.97 (mean 2.60). For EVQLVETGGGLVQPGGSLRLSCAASQFTLNSYGISWVRQAPGKGPEWVSVIYSDGRRTFYGDSVAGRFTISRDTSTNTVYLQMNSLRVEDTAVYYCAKARAAGTFDSWGQGTLVTVSS, the assay gave 3.15, 2.68, 2.97 (mean 2.94). With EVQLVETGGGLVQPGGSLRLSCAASLFTLNSYGISWVRQAPGKGPEWVSVIYSDGRRDFYGDSVKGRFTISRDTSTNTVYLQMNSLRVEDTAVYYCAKGRLAGTFDSWGQGTLVTVSS the result was 3.39, 2.75, nd (mean 3.07). For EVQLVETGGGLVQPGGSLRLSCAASIFTLNSYGISWVRQAPGKGPEWVSVIYSDGRKTFYGDSVVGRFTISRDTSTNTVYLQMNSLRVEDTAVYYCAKGRAAGTFDSWGQGTLVTVSS, the assay gave nd, 3.77, nd. With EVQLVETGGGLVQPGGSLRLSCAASHFTLNSYGISWVRQAPGKGPEWVSPIYSDGRRTFYGDSVKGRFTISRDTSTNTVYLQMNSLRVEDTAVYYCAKGRAAGTFESWGQGTLVTVSS the result was nd, 3.63, 5.05 (mean 4.34). The variant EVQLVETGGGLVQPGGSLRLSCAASVFTLNSYGISWVRQAPGKGPEWVSVIYSDGARTFYGDSVKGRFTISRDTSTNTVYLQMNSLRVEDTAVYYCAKGRAAYTFDSWGQGTLVTVSS gave 4.62, nd, nd. The variant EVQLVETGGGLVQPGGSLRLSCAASLMTKNSYGISWVRQAPGKGPEWVSVIYSDGRRTFYGDSVKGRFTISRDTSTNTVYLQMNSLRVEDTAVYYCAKGRAAGTFDSWGQGTLVTVSS showed nd, nd, nd.

With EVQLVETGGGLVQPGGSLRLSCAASVFTLNSYGIDWVRQAPGKGPEWVSVIYSGGRRTFYGDSVKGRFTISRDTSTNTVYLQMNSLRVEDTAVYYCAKGRAAGTFDSWGQGTLVTVSS the result was nd, nd, nd. The variant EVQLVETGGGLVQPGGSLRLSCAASLFTLNSYGISWVRQAPGKGPEWVSVIYSVGRRTKYGDSVKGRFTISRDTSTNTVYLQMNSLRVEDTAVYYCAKGRAAGTFDSWGQGTLVTVSS showed nd, nd, nd. The variant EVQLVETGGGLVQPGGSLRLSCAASEFTLNSYGISWVRQAPGKGPEWVSVIYTDGRRTFYGDSVKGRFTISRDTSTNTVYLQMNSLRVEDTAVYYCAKGRAAGTFESWGQGTLVTVSS gave nd, nd, nd. The variant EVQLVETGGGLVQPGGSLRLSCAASQFTLNSYGISWVRQAPGKGPEWVSVIYSDGRQTFYGDSVKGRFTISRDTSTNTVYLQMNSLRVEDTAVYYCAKGRYAGTFDSWGQGTLVTVSS gave nd, nd, nd. The variant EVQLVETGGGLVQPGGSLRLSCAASVFTLNSYGMSWVRQAPGKGPEWVSVIYSDWRRTFYGDSVKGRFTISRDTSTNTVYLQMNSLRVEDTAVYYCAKGRAAGTFDSWGQGTLVTVSS gave nd, nd, nd. For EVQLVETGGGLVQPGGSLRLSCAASLFTLNSYGISWVRQAPGKGPEWVSVIYTDTRRTFYGDSVKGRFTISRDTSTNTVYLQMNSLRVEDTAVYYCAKGRAAGTFDSWGQGTLVTVSS, the assay gave nd, nd, nd. For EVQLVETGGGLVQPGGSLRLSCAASAFHLNSYGISWVRQAPGKGPEWVSVIYSDGRFTFYGDSVKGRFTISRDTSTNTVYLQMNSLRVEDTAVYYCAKGRAAGTFDSWGQGTLVTVSS, the assay gave nd, nd, nd.

For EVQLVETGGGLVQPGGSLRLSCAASMFTENSYGISWVRQAPGKGPEWVSVIYSDGRRTFYGDSVKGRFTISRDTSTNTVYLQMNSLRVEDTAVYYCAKGRAAGTFDSWGQGTLVTVSS, the assay gave nd, nd, nd.

Top 2 of the variants detected in all replicates, tightest first:

For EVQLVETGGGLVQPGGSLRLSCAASVFTLNSYGISWVRQAPGKGPEWVSVIYSDGRRTFYGDSVKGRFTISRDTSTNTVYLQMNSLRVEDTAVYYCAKGRAAGTFDSWGQGTLVTVSS, the assay gave 3.04, 1.79, 2.97 (mean 2.60).
For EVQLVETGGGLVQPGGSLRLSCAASQFTLNSYGISWVRQAPGKGPEWVSVIYSDGRRTFYGDSVAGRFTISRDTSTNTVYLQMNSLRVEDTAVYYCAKARAAGTFDSWGQGTLVTVSS, the assay gave 3.15, 2.68, 2.97 (mean 2.94).